C2C12 statin: protects C2C12 myotubes from simvastatin toxicity. hit rate 0.78% among 330,000. AID 602340. rescue of ATP level, % at 7.49 µM. ATP luminescence, 48 h; scaled: DMSO 0, geranylgeraniol control 100;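 active = mean ATP rescue above about 67%, or every replicate alone reaching that limit, limit read from the data, passing the limit was not always enough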;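 also: myotubes were challenged with 10 µM simvastatin during compound exposure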
UUG fidelity: modulators of start codon recognition fidelity in yeast | S. cerevisiae UUG-firefly luciferase reporter, luminescence/redox ratio | activity score, % at 18.7 µM | 350,000 tested, 0.13% active;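 active = replicate mean at a twofold rise or more, about +100% in these data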;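 also: firefly luciferase made from a UUG start codon reports start codon fidelity; reporter light over untreated wells divided by growth signal over untreated wells; some hits fall short of that in this replicate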
Cneo AK release: causes C. neoformans cell lysis | adenylate kinase release luminescence, 4 h; normalised: neutral wells 0, clomiphene wells 100 | lysis activity, % at 15 µM | hit rate 0.2% among 360,000 | AID 651654;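 active = mean lysis activity across replicates of at least 80%, whatever share of replicates individually reach that level; inactive = mean lysis activity below 80%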
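Schedule: static 4 h at 37 °C with compound, 1 h detection; system: C. neoformans cells; benchmarks: Clomiphene as positive control; buffer or medium: fresh YPD medium; measure: luminescence rise reflecting yeast cell lysis; measured by: luminescent adenylate kinase detection reagent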
miR-122 sensor: blocks miR-122 activity in Huh7 sensor cells. hit rate 0.3% among 340,000. Huh7 miR-122 Renilla luciferase sensor, 48 h; neutral wells = 0, positive control = 100. activation (reporter increase), % at 12.5 µM. AID 602342;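 active = mean replicate activation score at least 90 and every replicate individually at or above 90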;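 also: higher luciferase means less miR-122 activity so hits act as miR-122 inhibitors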
Glyco luc inh: blocks N-linked glycosylation in D54 reporter cells | D54 ERlucT glycosylation luciferase reporter, 24 h; percent of 100 nM tunicamycin response | reporter increase, % at 12.5 µM | hit rate 0.23% among 360,000;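 active = mean luciferase reporter signal, scaled so untreated is 0 and the glycosylation-blocking control 100, at or above a set limit in every replicate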;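 also: luciferase carries N-glycosylation sites so blocking glycosylation raises the light; 0% = median of neutral control wells and 100% = median of 100 nM tunicamycin wells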
An asterisk follows results filed as active; nt = no result given; [ ] = remark or other dose. In the library only some 1.2% were active in any assay of this set; here they are far more common.

SMILES | C2C12 statin | UUG fidelity | Cneo AK release | miR-122 sensor | Glyco luc inh
C[C@@H]1CN([C@H](C)CO)C(=O)c2cccc(NC(=O)c3ccc(-c4nccs4)cc3)c2O[C@@H]1CN(C)Cc1ccc(C(=O)Nc2ccccc2N)cc1 | nt | 18 | -1 | 203*[16.7 µM] | nt
C[C@@H]1CN([C@H](C)CO)C(=O)c2cccc(NC(=O)Nc3ccccc3)c2O[C@H]1CN(C)Cc1ccc(C(=O)Nc2ccccc2N)cc1 | 113* | 1 | -5 | 18[16.7 µM] | nt
C[C@@H]1CN([C@@H](C)CO)C(=O)c2cccc(NC(=O)Nc3ccccc3)c2O[C@@H]1CN(C)Cc1ccc(C(=O)Nc2ccccc2N)cc1 | -115 | 5 | 1 | 140*[16.7 µM] | nt
COc1ccc(NC(=O)Nc2cccc3c2O[C@H](CN(C)Cc2ccc(C(=O)Nc4ccccc4N)cc2)[C@@H](C)CN([C@@H](C)CO)C3=O)cc1 | nt | 0 | -2 | 66[16.7 µM] | nt
C[C@@H]1CN([C@@H](C)CO)C(=O)c2cccc(N(C)C)c2O[C@@H]1CN(C)Cc1ccc(C(=O)Nc2ccccc2N)cc1 | 35 | 5 | 61 | 109*[16.7 µM] | nt
OC[C@H]1[C@H](c2ccc(C3=CCCC3)cc2)[C@H]2CN(CCC(F)(F)F)CCCCN21 | nt | 14 | -1 | -28[16.7 µM] | nt
C[C@H](CO)N1C[C@H](C)[C@@H](CN(C)Cc2ccc3c(c2)OCO3)Oc2c(NC(=O)Nc3ccccc3)cccc2C1=O | -12 | 2 | 2 | 95*[16.7 µM] | nt
C[C@@H]1CN([C@@H](C)CO)C(=O)c2cccc(NC(=O)Nc3ccccc3)c2O[C@@H]1CN(C)Cc1ccc2c(c1)OCO2 | -1 | 0 | 3 | 0[16.7 µM] | nt
C[C@H](CO)N1C[C@H](C)[C@@H](CN(C)C(=O)Nc2cccc3ccccc23)Oc2c(NC(=O)c3ccc(-c4nccs4)cc3)cccc2C1=O | 40 | 22 | -7 | -11[16.7 µM] | nt
C[C@@H]1CN([C@H](C)CO)C(=O)c2cccc(NC(=O)c3ccc(-c4nccs4)cc3)c2O[C@@H]1CN(C)C(=O)Nc1cccc2ccccc12 | 80* | 0 | 15 | -5[16.7 µM] | nt
C[C@H]1CN([C@@H](C)CO)C(=O)Cc2cc(NS(=O)(=O)c3cccs3)ccc2O[C@@H]1CN(C)S(C)(=O)=O | 6 | -1 | 0 | 3[16.7 µM] | nt
Cc1ccc(N(Cc2cc3ccccc3[nH]c2=O)C(=O)c2cccs2)cc1C | 101* | -9 | 2 | 2 | -4
CC(C)Sc1nc2ncnc(N)c2[nH]1 | -5 | -7 | 114* | -2 | -1
Nc1ncnc2nc(Sc3ccc(Cl)cc3)[nH]c12 | 14 | -21 | 0 | 0 | -1
CNC(=O)C[C@@H]1CC[C@@H]2[C@H](COc3ccc(NS(=O)(=O)c4cccc(F)c4)cc3C(=O)N2C)O1 | 7 | -14 | -2 | -3[16.7 µM] | nt
N#Cc1c(NCCN)nc(-c2ccco2)c2c1CCCC2 | nt | nt | nt | -3 | 33*
CC(C)CCNc1nc(-c2ccco2)c2c(c1C#N)CCCC2 | -4 | -21 | -3 | -1 | 1
Cc1cccc(S(=O)(=O)N(C)C[C@H]2OCc3cn(nn3)CCCC(=O)N([C@H](C)CO)C[C@H]2C)c1 | -13 | -6 | 12 | -1[16.7 µM] | nt
Cc1ccc(S(=O)(=O)N(C)C[C@H]2Oc3ccc(NC(=O)Cc4ccccc4)cc3CC(=O)N([C@@H](C)CO)C[C@@H]2C)cc1 | 85* | 24 | 50 | 3[16.7 µM] | nt
Cc1ccc(S(=O)(=O)N(C)C[C@@H]2Oc3ccc(NC(=O)Nc4ccc(C(F)(F)F)cc4)cc3CC(=O)N([C@H](C)CO)C[C@@H]2C)cc1 | -177 | 0 | 0 | 123*[16.7 µM] | nt
C[C@@H]1CN([C@@H](C)CO)C(=O)c2cc(C3=CCCC3)cnc2O[C@H]1CN(C)C | -2 | -12 | -9 | -3[16.7 µM] | nt
COc1ccc(CN2[C@H](CO)[C@H]3c4ccccc4NC[C@H]32)cc1 | 157* | 9 | -1 | 0[16.7 µM] | nt
COc1ccc(C(=O)N2C[C@H]3[C@@H](c4ccccc42)[C@@H](CO)N3Cc2ccccc2Cl)cc1 | 13 | 5 | 4 | 5[16.7 µM] | nt
COc1ccc(C(=O)N2C[C@@H]3[C@H](c4ccccc42)[C@H](CO)N3Cc2ccccc2Cl)cc1 | 3 | 28 | 55 | 194*[16.7 µM] | nt
O=C(C1CCOCC1)N1C[C@H]2[C@@H](c3ccccc31)[C@@H](CO)N2Cc1ccccc1Cl | -9 | 20 | 100* | 20[16.7 µM] | nt
O=C(c1cccc(F)c1)N1C[C@H]2[C@@H](c3ccccc31)[C@@H](CO)N2Cc1cocn1 | -22 | 22 | 100* | 7[16.7 µM] | nt
C[C@@H]1CCCCO[C@@H](CN(C)C(=O)c2ccccc2)[C@@H](C)CN([C@H](C)CO)C(=O)c2cc(NS(=O)(=O)c3ccc(Cl)cc3)ccc2O1 | nt | 1 | 36 | 8[16.7 µM] | nt
COc1cccc(/C=C/c2n[nH]c(=O)c(C#N)c2C)c1 | 94* | 2 | 4 | -4 | -3
O=C(NCC[C@H]1CC[C@H](NS(=O)(=O)c2ccc(F)cc2)[C@@H](CO)O1)c1ccc2c(c1)OCO2 | 2 | 12 | 102* | nt | nt
O=C(CN1CCOCC1)N[C@@H]1CC[C@@H](CCNC(=O)C2CCC2)O[C@H]1CO | 3 | nt | 10 | 2[16.7 µM] | nt

Sorted by length of the SMILES (descending): some entries from above.
SMILES | C2C12 statin | UUG fidelity | Cneo AK release | miR-122 sensor | Glyco luc inh
O=C(NCC[C@H]1CC[C@H](NS(=O)(=O)c2ccc(F)cc2)[C@@H](CO)O1)c1ccc2c(c1)OCO2 | 2 | 12 | 102* | nt | nt
COc1ccc(C(=O)N2C[C@@H]3[C@H](c4ccccc42)[C@H](CO)N3Cc2ccccc2Cl)cc1 | 3 | 28 | 55 | 194*[16.7 µM] | nt
O=C(c1cccc(F)c1)N1C[C@H]2[C@@H](c3ccccc31)[C@@H](CO)N2Cc1cocn1 | -22 | 22 | 100* | 7[16.7 µM] | nt
C[C@@H]1CN([C@@H](C)CO)C(=O)c2cc(C3=CCCC3)cnc2O[C@H]1CN(C)C | -2 | -12 | -9 | -3[16.7 µM] | nt
COc1cccc(/C=C/c2n[nH]c(=O)c(C#N)c2C)c1 | 94* | 2 | 4 | -4 | -3

Going on with the list.
SMILES | C2C12 statin | UUG fidelity | Cneo AK release | miR-122 sensor | Glyco luc inh
O=C(CCN1CCCCC1)NCC[C@@H]1CC[C@H](NC(=O)c2ccc(F)cc2)[C@@H](CO)O1 | 3 | 12 | 86* | nt | nt
CC(=O)N[C@H]1CC[C@H](CCNC(=O)C2CCC2)O[C@@H]1CO | -1 | 14 | 101* | nt | nt
CC(=O)N[C@@H]1CC[C@@H](CCNC(=O)C2CCC2)O[C@H]1CO | 2 | 6 | -1 | nt | nt
O=C(CN1CCOCC1)N[C@@H]1CC[C@@H](CCNC(=O)C2CCC2)O[C@@H]1CO | -1 | nt | 98* | 43[16.7 µM] | nt
O=C(CCN1CCCCC1)NCC[C@H]1CC[C@H](NC(=O)c2ccc(F)cc2)[C@H](CO)O1 | 0 | -7 | 4 | nt | nt
COc1ccc(CN2CCN(C3CCC3)CC2CCO)c(F)c1 (stereo not drawn) | -2 | -8 | 2 | -1 | -1
OC(c1ccccc1)c1nc(-c2cc(F)cc(F)c2)cs1 (stereo not drawn) | 3 | -1 | -4 | 3 | -2
CCNC(=O)C[C@@H]1CC[C@@H]2[C@H](COC[C@@H](O)CN2Cc2ccccc2F)O1 | -6 | 4 | -1 | 3[16.7 µM] | nt
Cc1ccc(S(=O)(=O)N[C@H]2CC[C@H](CCNC(=O)C3CCCC3)O[C@@H]2CO)cc1 | 1 | 30 | 95* | -16[16.7 µM] | nt
Cc1ccc(S(=O)(=O)N[C@H]2CC[C@@H](CCNC(=O)C3CCCC3)O[C@H]2CO)cc1 | 4 | 19 | 57 | -5[16.7 µM] | nt
O=c1c2ccccc2nc(SCc2ccc(F)cc2Cl)n1CCCN1CCOCC1 | 31 | nt | nt | -6 | -8
Fc1ccc(CSc2nnc(CN3CCOCC3)n2-c2ccccc2)c(Cl)c1 | 103* | -5 | -2 | 3 | -2
CCOc1ccc(CC(=NCCc2ccccc2)C2=C(O)CC(C)(C)CC2=O)cc1OCC | nt | 9 | 1 | -3 | -5
CCOc1ccc(CC(=N)C2=C(O)CC(C)(C)CC2=O)cc1OCC | nt | -4 | -2 | 133* | 2
